Patent US10717966B2, “Stem cell-derived hepatocytes in co-culture and uses thereof” (Colorado State University Research Foundation, priority 2014, dated 2020)

Tested on: iMPCCs (iHep micropatterned co-cultures)
Conditions: human, 6 days

In the case of `CN1CCN(C2=Nc3cc(Cl)ccc3Nc3ccccc32)CC1` [Clozapine], the “TC50 in iMPCCs, ATP” value was 57.9 µM.
